Laboratory results taken from BindingDB's records for doi:10.1021/jm900212y (Friedrich Alexander University Erlangen, 2009).

Target: T1, Polyunsaturated fatty acid 5-lipoxygenase (Homo sapiens, UniProt P09917)
T1 sequence (P09917 whole entry): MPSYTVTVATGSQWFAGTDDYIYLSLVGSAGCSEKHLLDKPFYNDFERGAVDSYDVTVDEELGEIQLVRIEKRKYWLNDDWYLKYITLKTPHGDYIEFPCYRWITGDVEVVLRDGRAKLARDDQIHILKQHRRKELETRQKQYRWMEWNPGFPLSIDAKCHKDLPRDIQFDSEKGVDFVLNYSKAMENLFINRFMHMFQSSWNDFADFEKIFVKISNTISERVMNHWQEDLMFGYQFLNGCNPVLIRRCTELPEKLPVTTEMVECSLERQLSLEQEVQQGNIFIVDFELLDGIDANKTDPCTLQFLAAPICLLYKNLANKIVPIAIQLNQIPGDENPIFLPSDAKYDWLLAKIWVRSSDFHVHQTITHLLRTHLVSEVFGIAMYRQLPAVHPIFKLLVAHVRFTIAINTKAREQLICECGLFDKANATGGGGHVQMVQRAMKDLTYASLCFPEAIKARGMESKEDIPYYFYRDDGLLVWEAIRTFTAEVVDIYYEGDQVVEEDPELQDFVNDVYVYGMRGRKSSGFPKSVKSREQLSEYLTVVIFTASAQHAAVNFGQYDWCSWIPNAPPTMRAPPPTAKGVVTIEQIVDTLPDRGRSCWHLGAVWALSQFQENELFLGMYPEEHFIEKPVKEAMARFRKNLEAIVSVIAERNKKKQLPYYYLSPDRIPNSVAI
Assay: For determination of the activity of 5-LO in 40000g supernatant (S40), aliquots of the supernatants were added to reaction mix, and were preincubated with the test compounds before arachidonic acid was added to start 5-LO product formation. Formed 5-LO metabolites were extracted and analyzed by HPLC. 5-LO product includes LTB4 and its all-trans isomers, and 5(S)-hydro(pero)xy-6-trans- 8,11,14-cis-eicosatetraenoic acid. IC50s are expressed as mean +/- SE, obtained from measurements at 4-5 different concentrations of test compounds, and determined using Graphpad Instat (Graphpad Software Inc., San Diego, CA). EC50/IC50 values were obtained from product formation in intact neutrophils.

| SMILES | EC50 (pH 7.4, 37 °C) | EC50 |
| --- | --- | --- |
| C=CCN(CC=C)c1[nH]c2ccccc2c1C(=O)OC [2-substituted indole-3-carboxylate, 27h] | 12500 nM | – |
| C=CCNc1[nH]c2ccccc2c1C(=O)OC [2-substituted indole-3-carboxylate, 27g] | > 30000 nM | – |
| CCOC(=O)c1c(Cc2cccc(Cl)c2)n(C)c2c1cc(OC)c1ccccc12 [1H-benzo[g]indole-3-carboxylate, 32] | – | > 30000 nM |
| CCOC(=O)c1c(Cc2cccc(Cl)c2)[nH]c2c1cc(-c1ccccc1)c1ccccc12 [1H-benzo[g]indole-3-carboxylate, 36] | – | > 30000 nM |
| COC(=O)c1c(Nc2cccc(F)c2)[nH]c2ccccc12 [2-substituted indole-3-carboxylate, 27d] | 7900 nM | – |
| CCOC(=O)c1c(Cc2ccc(Cl)cc2)n(Cc2ccccc2)c2c1cc(O)c1ccccc12 [5-hydroxy-1H-benzo[g]indole-3-carboxylate, 11p] | – | 1800 nM |

Continued, values first:

| EC50 (pH 7.4, 37 °C) | EC50 | SMILES |
| --- | --- | --- |
| – | 2800 nM | CCOC(=O)c1c(Cc2cccc(Cl)c2)[nH]c2cc(-c3ccc(-c4ccccc4)cc3)c(O)cc12 [5-hydroxy-1H-indole-3-carboxylate, 22] |
| – | 2800 nM | CCOC(=O)c1c(CCc2ccc(Cl)cc2)[nH]c2c1cc(O)c1ccccc12 [5-hydroxy-1H-benzo[g]indole-3-carboxylate, 11n] |
| 340 nM | – | CCOC(=O)c1c(Cc2cccc(F)c2)[nH]c2c1cc(O)c1ccccc12 [5-hydroxy-1H-benzo[g]indole-3-carboxylate, 11d] |
| 1700 nM | – | CCOC(=O)c1c(Cc2ccc(C(F)(F)F)cc2)[nH]c2c1cc(O)c1ccccc12 [5-hydroxy-1H-benzo[g]indole-3-carboxylate, 11j] |
| – | 490 nM | CCOC(=O)c1c(CCc2cccc(Cl)c2)[nH]c2c1cc(O)c1ccccc12 [5-hydroxy-1H-benzo[g]indole-3-carboxylate, 11m] |
